Data: BindingDB's records for doi:10.1016/0024-3205(83)90740-3 (University of Toronto, 1983)

Sequences of proteins named here, by UniProt entry; tags and fusion partners are left off.
UniProt P14842, whole entry: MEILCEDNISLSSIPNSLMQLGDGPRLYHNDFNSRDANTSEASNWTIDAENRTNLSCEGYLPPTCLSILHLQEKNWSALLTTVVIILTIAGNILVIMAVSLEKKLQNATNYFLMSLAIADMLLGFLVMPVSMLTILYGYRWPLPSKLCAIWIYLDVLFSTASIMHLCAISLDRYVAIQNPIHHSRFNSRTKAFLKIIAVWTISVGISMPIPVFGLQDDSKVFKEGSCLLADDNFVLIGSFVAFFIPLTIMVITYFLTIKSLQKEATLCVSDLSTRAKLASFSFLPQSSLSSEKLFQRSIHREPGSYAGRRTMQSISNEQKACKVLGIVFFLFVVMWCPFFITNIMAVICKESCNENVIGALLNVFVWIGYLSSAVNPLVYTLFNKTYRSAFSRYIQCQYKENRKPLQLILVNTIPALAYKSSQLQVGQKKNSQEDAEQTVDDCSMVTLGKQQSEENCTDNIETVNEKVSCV

Biological target: 5-hydroxytryptamine receptor 2A (Rattus norvegicus, UniProt P14842)

`O=C(CCCN1CCC2(CC1)C(=O)NCN2c1ccccc1)c1ccc(F)cc1` [8-[4-(4-fluorophenyl)-4-oxidanylidene-butyl]-1-phenyl-1,3,8-triazaspiro[4.5]decan-4-one] was tested. Which Ki did it give?
The Ki was 0.5 nM.
